{"sequences": {"note": "Sequences of proteins named here, by UniProt entry; tags and fusion partners are left off.", "UniProt P53350, whole entry": "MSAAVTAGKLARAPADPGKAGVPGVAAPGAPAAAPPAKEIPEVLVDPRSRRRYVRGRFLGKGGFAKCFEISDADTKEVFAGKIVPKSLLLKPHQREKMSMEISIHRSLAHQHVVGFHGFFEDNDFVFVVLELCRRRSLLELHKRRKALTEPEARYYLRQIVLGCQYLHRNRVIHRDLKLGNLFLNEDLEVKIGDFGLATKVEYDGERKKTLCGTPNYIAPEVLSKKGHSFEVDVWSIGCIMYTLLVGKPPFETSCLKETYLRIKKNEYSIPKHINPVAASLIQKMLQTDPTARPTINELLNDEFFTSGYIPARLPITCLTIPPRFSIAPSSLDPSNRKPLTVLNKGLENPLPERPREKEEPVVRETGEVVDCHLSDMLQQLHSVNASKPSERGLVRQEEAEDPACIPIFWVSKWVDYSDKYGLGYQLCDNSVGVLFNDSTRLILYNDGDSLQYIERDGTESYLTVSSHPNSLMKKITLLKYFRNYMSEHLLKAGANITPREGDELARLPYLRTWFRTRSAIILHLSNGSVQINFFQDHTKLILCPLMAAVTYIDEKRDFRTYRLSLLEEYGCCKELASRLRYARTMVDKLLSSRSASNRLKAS"}, "source": "patent US7709471B2", "about": "“Compounds” (AstraZeneca AB, priority 2006, dated 2010)", "key": {"[1]": {"test_system": "human colon tumour cell line HT29", "test": "Cellular Assay (phosphohistone H3 Ser10 mitotic marker, HT29)", "format": "cell-based", "conditions": "HT-29, 24 h, read-out: IC50 (cellular assay, phosphohistone H3)"}, "recombinant Plk1": {"target": "recombinant Plk1 (Homo sapiens, UniProt P53350)", "test": "In Vitro Plk1 Enzyme Assay (SPA, GST-Cdc25C phosphorylation)", "format": "biochemical", "conditions": "IC50 (Plk1 enzyme inhibition)"}}}
{"smiles": "COc1cc(C(=O)NC2CCN(C)CC2)ccc1Nc1ncc2c(n1)N(C1CCCCC1)CCC(=O)N2C", "note": "[Example 8, 4-[(2-Cyclohexyl-6-methyl-5-oxo-2,6,9,11-tetrazabicyclo[5.4.0]undeca-7,9,11-trien-10-yl)amino]-3-methoxy-N-(1-methyl-4-piperidyl)benzamide]", "values": [{"measurement": "IC50", "setting": "[1]", "value": "< 0.3", "unit": "µM"}, {"measurement": "IC50", "setting": "recombinant Plk1", "value": "< 1", "unit": "µM"}]}
